The structures appear in SMILES notation.

Protein sequences, listed by entry. Tags and fused reporters are not part of them. Residues count along the entry.
UniProt P08684, 2-503: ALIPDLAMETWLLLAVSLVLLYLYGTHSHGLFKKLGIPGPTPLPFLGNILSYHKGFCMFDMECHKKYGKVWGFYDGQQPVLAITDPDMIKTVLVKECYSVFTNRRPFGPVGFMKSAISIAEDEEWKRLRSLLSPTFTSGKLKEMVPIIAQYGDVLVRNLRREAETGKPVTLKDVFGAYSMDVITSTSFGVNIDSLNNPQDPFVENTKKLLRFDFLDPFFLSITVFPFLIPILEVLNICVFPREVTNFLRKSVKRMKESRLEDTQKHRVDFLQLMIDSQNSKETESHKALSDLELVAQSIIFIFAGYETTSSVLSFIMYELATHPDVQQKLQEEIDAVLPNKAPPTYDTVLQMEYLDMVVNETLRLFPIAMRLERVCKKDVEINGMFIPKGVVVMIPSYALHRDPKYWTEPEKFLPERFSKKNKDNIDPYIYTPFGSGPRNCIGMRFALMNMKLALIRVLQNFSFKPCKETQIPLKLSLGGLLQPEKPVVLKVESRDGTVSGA

The Ki is the equilibrium dissociation constant of an inhibitor or competing ligand from its target. Lower therefore signals higher affinity.

This series addresses CYP3A4 (Homo sapiens, UniProt P08684). Nature of the series: in vitro. As to conditions: both, pH 7.4.

`O=C(c1cccnc1-c1ccncc1)N1CCC(O)(Cc2ccccc2)CC1` [Soticlestat] gave a Ki at 5 min of 12.4 µM.

The values above are taken from PMC12044326 (Clinical Pharmacology in Drug Development, 2025).
